## Antibody variant affinities, Ab-14 light chain, assay B

The measurements come from Li et al. 2023 (doi:10.1038/s41467-023-39022-2) through the FLAb antibody collection.

Binding partner: SARS-CoV-2 spike HR2 peptide, sequence PDVDLGDISGINAS.

Ab-14 is the parent antibody, in scFv form: VH, then a 15-residue (Gly4Ser)3 linker, then VL. The heavy chain is unchanged in all variants.
VH: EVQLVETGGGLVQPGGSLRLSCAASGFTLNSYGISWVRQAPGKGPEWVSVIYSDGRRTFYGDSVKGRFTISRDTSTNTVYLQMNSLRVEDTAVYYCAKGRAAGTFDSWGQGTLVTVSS
VL: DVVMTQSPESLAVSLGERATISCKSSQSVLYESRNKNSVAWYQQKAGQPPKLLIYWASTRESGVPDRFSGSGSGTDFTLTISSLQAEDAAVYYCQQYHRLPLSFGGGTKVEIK

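The variants were designed computationally from a first round of random CDR variants and then made and measured. Group labels follow the data file (Ctrl: baseline library sampled from a position-specific scoring matrix, with some repeated check sequences; En: ensemble of fine-tuned language models; GP: Gaussian process model; HC: hill climbing; Gen: genetic algorithm; Gibbs: Gibbs sampling; a sequence that several methods proposed may carry one label only). AlphaSeq pools MATa yeast showing the antibodies with MATalpha yeast showing the peptide. Pairs that bind mate more often; barcode pairs of the diploids are counted by sequencing. Scores were corrected for input abundance and mapped to Kd with protein pairs of known affinity run in the same pool. There are six technical replicates.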

Variants are written as CDR1, CDR2 and CDR3 of the light chain (limits as in the source). Parent: KSSQSVLYESRNKNSVA, WASTRES, QQYHRLPLS. Kd is apparent (estimated from mating counts) and averaged on the log scale over replicates with a signal. Smaller is tighter. Where no diploid with the target was found in any replicate, the entry reads "not detected": below detection, most likely a poor binder, though not proof of it. The authors averaged sequences with at least three values out of six and counted those with two or fewer as poor binders. Of ten entries with the parent sequence, four were seen in most replicates (averages 2.2 nM to 240 nM), three in one and three in none, so single entries are noisy. Three control strains display no target. For all light chain designs, 4% of the pairings with them gave a signal, with a median of 430 nM and one signal in twenty below 38 nM, so weak values seen in few replicates may be background. For each scFv, signals with the empty controls are counted beside the result. Values of this round are not directly comparable with the first-round values of the same sequences.

| CDR-L1 | CDR-L2 | CDR-L3 | group | apparent Kd | replicates with signal | control signals |
|---|---|---|---|---|---|---|
| KSSQGVEYESREKNSVA | SASTRES | QQYHRLPLS | Ctrl | 14 nM | 6/6 | 1/18 |
| KLSPSVLAESDQKNSVA | WASTRES | QQPHRLPLS | Ctrl | 200 nM | 5/6 | 2/18 |
| KVQQSVLYESRNKNSVA | NASTRED | QQYHRLPLS | GP_Gen | 430 pM | 6/6 | 0/18 |
| KSSISVLFESNNSNAVA | WASTRES | QQYFRLPLS | Ctrl | not detected | 0/6 | 0/18 |
| KLQQSELYESRNKNSVA | QASQRES | QQYHRLPLS | GP_Gen | 780 pM | 6/6 | 1/18 |
| KSSYSVLGESDNKNSVA | KASTRES | QQYHRLPLS | Ctrl | 3.1 nM | 6/6 | 0/18 |
| KLTSITGTEKVHGNNVA | EMETRES | QQYNRLPLS | En_Gen | 1.4 nM | 6/6 | 2/18 |
| TLHANIQYGGIMWSSIA | GNVQRAN | QQYARLPLS | En_Gibbs | 14 nM | 6/6 | 1/18 |
| KSSQSVLYESRNKNSVA | WARTRMS | QQYHRLPLS | Ctrl | 120 nM | 2/6 | 0/18 |
| KITDDFLTEGNRRQNIA | HNNVACD | QQYQQLPLA | En_Gibbs | 4.2 nM | 6/6 | 2/18 |
| KWSQSVLYESRNKNSVA | WASTREL | QQYHRLPLS | Ctrl | 73 nM | 1/6 | 0/18 |
| KLSQSWMQQWRNKNSVA | NASTRLS | QQYHRLPLS | GP_Gibbs | 1.0 nM | 6/6 | 0/18 |
| KLSISHQVESISKSNVA | EMVTRES | QQYDRLPLS | En_HC | 4.3 nM | 6/6 | 0/18 |
| KSSGSQQGEDRNSNSVA | HASQRES | QQYHRLPLS | GP_Gibbs | 1.2 nM | 6/6 | 0/18 |
| KLSQSTWYESGMKNSVA | NASLREQ | QQYHRLPLS | GP_Gibbs | 1.2 nM | 6/6 | 0/18 |
| KLQQSVLYESRNKNAVA | NASQRES | QQYHRLPLS | GP_Gen | 550 pM | 6/6 | 1/18 |
| HSSWSVDDESRNDNSVA | DASTRED | QQYHRLPLS | GP_Gibbs | 490 pM | 6/6 | 1/18 |
| KVSQSFLYEERNKNSVA | NASQRES | QQYHRLPLS | GP_Gen | 760 pM | 6/6 | 0/18 |
| KVSQSQLYESRNKNSVA | EASTRES | QQYHRLPLS | GP_Gen | 1.9 nM | 6/6 | 0/18 |
| QLQIHDNGYIGMRNNVA | DGGMVRM | QQYARLPLM | En_Gibbs | 2.0 nM | 6/6 | 0/18 |
| KLSTSQLYWSRNFNAVA | QASTRET | QQYHRLPLS | GP_Gibbs | 4.2 nM | 6/6 | 0/18 |
| HLNTEWNHGANRDNNIA | EAQTVAA | QDYFRLPII | En_Gibbs | 58 nM | 5/6 | 0/18 |
| TMNHELIYGVPMMNNVA | AGSQKLA | QQYYRLPLS | En_Gibbs | 1.0 nM | 6/6 | 0/18 |

The remaining entries, values ahead:

| apparent Kd | replicates with signal | control signals | CDR-L1 | CDR-L2 | CDR-L3 | group |
|---|---|---|---|---|---|---|
| 14 nM | 6/6 | 1/18 | KVSQSELMESRNKNSVA | EASTRQS | QQYHRLPLS | GP_HC |
| 43 nM | 6/6 | 1/18 | HCSQSVWQESRNKNSVA | NASQRER | QQYHRLPLS | GP_Gibbs |
| 2.5 nM | 6/6 | 1/18 | MISQSFLIGMKAQNSVA | QTSTREE | QQYDRLPLS | En_HC |
| 880 pM | 6/6 | 1/18 | KIGQTVTYESTNKNAIA | QMTTRES | QQYHRLPLS | En_HC |
| 58 nM | 6/6 | 0/18 | MISQLMNLGQFAINSVA | QASIRNQ | QQYDRLPLM | En_Gen |
| 410 pM | 6/6 | 1/18 | ALSQSQGGESRNPNSVA | HASTREQ | QQYHRLPLS | GP_Gibbs |
| 8.0 nM | 6/6 | 0/18 | KSSFSYLYESRNKNSVA | EASTRES | QQYHRLPLM | GP_HC |
| 13 nM | 6/6 | 1/18 | HYSQSVLYESRNKNSVA | MASTRES | QQYHRLPLS | Ctrl |
| 5.2 nM | 6/6 | 0/18 | KLRQMTLTEGYFKNSVA | QAETRES | QSYHRLPLS | En_HC |
| 48 nM | 6/6 | 0/18 | IIYGSMLMESRNKNSVA | NAETREY | QHYDRLPLS | En_HC |
| 1.6 nM | 6/6 | 1/18 | KVSQSAWMEERNFNSVA | NASTREE | QQYHRLPLS | GP_Gibbs |
| 63 nM | 6/6 | 0/18 | MVTQMAMTGMMSKRSVA | NAEMREN | QQYHRLPLI | En_Gen |
| 21 nM | 3/6 | 0/18 | HVHSLMAIWQEISNNIA | DAQNRNA | QQYFRLPLA | En_Gibbs |
| not detected | 0/6 | 0/18 | QSSQSVLYESRNKNSVA | WASTRES | QQYHRLVLK | Ctrl |
| 890 pM | 6/6 | 2/18 | KLMQSTLYESRNKNSVA | NASTRES | QQYHRLPLS | GP_Gen |
| 450 pM | 6/6 | 2/18 | KFSQLYLYESRNKNSVA | NASTRES | QQYRRLPLS | GP_Gibbs |
| 2.0 nM | 6/6 | 0/18 | KSSPSYPEESRNKNSVA | EASTRES | QQYHRLPLS | GP_HC |
| not detected | 0/6 | 0/18 | KSSQSGLYESRNSNSVA | WASTRES | QQYHRLPLS | Ctrl |
| 51 nM | 6/6 | 1/18 | KLSATYRFESQNKSNIA | EMTTREQ | QCYHRLPLS | En_HC |
| 1.6 nM | 6/6 | 1/18 | TISQVLNTLAKTGNNVA | DLAEREQ | QQYFRLPLS | En_Gen |
| 1.3 nM | 6/6 | 1/18 | KFSQSNLYEDRMQNPVA | NASQREQ | QQYHRLPLS | GP_Gibbs |
| 1.4 nM | 6/6 | 1/18 | KLQQSHLYESRNKNSVA | DASTRCS | QQYHRLPLS | GP_Gen |
| 940 pM | 6/6 | 0/18 | KSSPSVKFESRNKNSVA | DASTRES | QQYHRLPLS | GP_HC |

Picked from the list: the 7 lowest averages where every replicate gave a value.

CDR-L1	CDR-L2	CDR-L3	group	apparent Kd	replicates with signal	control signals
ALSQSQGGESRNPNSVA	HASTREQ	QQYHRLPLS	GP_Gibbs	410 pM	6/6	1/18
KVQQSVLYESRNKNSVA	NASTRED	QQYHRLPLS	GP_Gen	430 pM	6/6	0/18
KFSQLYLYESRNKNSVA	NASTRES	QQYRRLPLS	GP_Gibbs	450 pM	6/6	2/18
HSSWSVDDESRNDNSVA	DASTRED	QQYHRLPLS	GP_Gibbs	490 pM	6/6	1/18
KLQQSVLYESRNKNAVA	NASQRES	QQYHRLPLS	GP_Gen	550 pM	6/6	1/18
KVSQSFLYEERNKNSVA	NASQRES	QQYHRLPLS	GP_Gen	760 pM	6/6	0/18
KLQQSELYESRNKNSVA	QASQRES	QQYHRLPLS	GP_Gen	780 pM	6/6	1/18